Source: ChEMBL document CHEMBL1151466, “Pharmacokinetics and efficacy of piperaquine and chloroquine in Melanesian children with uncomplicated malaria” (Antimicrob Agents Chemother, 2008)

Test system: Homo sapiens
Assay: Apparent clearance with respect to bioavailability in Paua New Guinean children with uncomplicated malaria at 10 mg/kg daily for 3 days
Format: ADME, organism-based
Details: in vivo, 72 h

`CCN(CC)CCCC(C)Nc1ccnc2cc(Cl)ccc12` (stereo unspecified) [CHLOROQUINE] gave a CL/F of 13 mL/min/kg.
